Experimental data reported in ChEMBL document CHEMBL2057137, “Lead optimization studies on FimH antagonists: discovery of potent and orally bioavailable ortho-substituted biphenyl mannosides” (J Med Chem, 2012).

System: Escherichia coli
Assay: Binding affinity to […] Escherichia coli FimH-lectine domain assessed as melting temperature at 100 uM by differential scanning fluorometric assay
Summary of the method: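 Untagged FimH lectin domain (residues 1–158 of UPEC J96 FimH), 5 µg in a 50 µl reaction of HBS (20mM HEPES pH 7.5, 150mM NaCl). Compound at 100µM final, diluted from DMSO stocks, with SYPRO Orange at 5X final. Controls were FimH alone plus 0.2% DMSO. Melt curve ran from 20–90°C in 0.5 °C steps of 15 s each, with fluorescence read on the HEX channel.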

Compound | Tm [°C]
OC[C@H]1O[C@H](OCc2ccccc2)[C@@H](O)[C@@H](O)[C@@H]1O | 68.1
COC(=O)c1ccc(-c2ccc(O[C@H]3O[C@H](CO)[C@@H](O)[C@H](O)[C@@H]3O)cc2)cc1 | 68.7
